Measured values from patent US9242981B2, “Fused pyrazole derivatives as novel ERK inhibitors” (Merck Sharp & Dohme Corp., priority 2010, dated 2016).

By UniProt entry, the sequences of proteins in these tests, tags left out. Residues count along the entry.
UniProt P63085, whole entry: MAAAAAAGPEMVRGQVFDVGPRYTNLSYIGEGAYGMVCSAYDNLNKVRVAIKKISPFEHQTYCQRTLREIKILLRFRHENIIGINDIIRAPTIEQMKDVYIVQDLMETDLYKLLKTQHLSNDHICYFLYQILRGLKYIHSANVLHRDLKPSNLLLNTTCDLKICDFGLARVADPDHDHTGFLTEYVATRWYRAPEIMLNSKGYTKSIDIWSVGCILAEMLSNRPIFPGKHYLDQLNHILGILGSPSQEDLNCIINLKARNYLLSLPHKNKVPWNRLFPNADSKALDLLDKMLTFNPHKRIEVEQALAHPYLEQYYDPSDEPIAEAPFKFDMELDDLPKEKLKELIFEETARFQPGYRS
UniProt P63085, 2-358 limits assumed: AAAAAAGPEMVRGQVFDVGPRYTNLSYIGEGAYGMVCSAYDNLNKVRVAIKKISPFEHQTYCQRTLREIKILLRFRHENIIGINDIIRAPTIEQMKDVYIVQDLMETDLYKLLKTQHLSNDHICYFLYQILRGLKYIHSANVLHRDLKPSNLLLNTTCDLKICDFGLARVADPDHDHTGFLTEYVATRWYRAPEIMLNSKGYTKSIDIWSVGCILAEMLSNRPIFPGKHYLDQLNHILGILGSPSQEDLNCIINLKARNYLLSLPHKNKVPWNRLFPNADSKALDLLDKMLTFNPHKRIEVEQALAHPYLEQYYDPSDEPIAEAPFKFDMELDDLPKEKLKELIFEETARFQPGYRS

Tests used:
[1] = target: ERK protein (Mus musculus, UniProt P63085); assay: TdF (Temperature Dependence Fluorescence, thermal shift) assay for ERK; type: binding; conditions: read-out: Kd TdF nM; Table 1, class symbols; 3 μM ERK protein
Excerpt: The SAR (Structure Activity Relationship) for ERK ligands covered by this invention was interrogated using the TdF (Temperature Dependence Fluorescence) assay or best known as thermal shift assay. (M. W. Pantoliano, et al., “High-density miniaturized thermal shift assays as a general strategy for drug discovery,” J. Biomol. Screen 6 (2001) 429-440) The TdF assay was mainly conducted in the 96-well based CHROMO-4 real time fluorescence plate reader (BioRad). The Sypro Orange (Sigma-Aldrich), environmentally sensitive fluorescence dye, was used to monitor the protein folding-unfolding transition. […]
Compound of interest was first prepared in DMSO stock (typical concentration: 10 mM). […] The fluorescence signals were acquired with excitation and emission wavelengths centered at 490 and 560 nm respectively. […]
The derivation of TdF-based ligand binding affinity constant (Kd) followed closely those previously formulated by Brandts and Lin. […] In brief, the binding constant of the ligand at the Tm is expressed as below:
[formula] where T0 is the midpoint of unfolding for unliganded protein and Tm is the midpoint of unfolding in presence of ligand. […] Following algorithm derived by Winsor and coworker, the T0, ΔHu and ΔCpu can be determined separately from nonlinear regression fitting the protein alone melting curve: […]

[2] = target: Mouse ERK2 protein (Mus musculus (Mouse), UniProt P63085); assay: Coupled MEK1/ERK2 IMAP assay or Active ERK2 IMAP assay; type: biochemical; conditions: read-out: ERK2 IC50 nM, Table 1, class symbols, 30 μM ATP

Q: `Cc1cc(-c2n[nH]c3c2CN(C(=O)NC2CC4CCC(C2)N4Cc2c(F)cccc2F)CC3)ccn1` (centres unmarked) was tested. Which Kd [1] did it give?
A: Its Kd is 101 to 1000 nM.

Q: And the IC50 [2]?
A: The IC50 was 101 to 1000 nM.
